Our source for the Ki values is patent publication US7759499B2, “Compounds as inhibitors of hepatitis C virus NS3 serine protease” (Schering Corporation, priority 2004, dated 2010).

Protein sequences, listed by entry. Tags and fused reporters are not part of them. Residues count along the entry.
UniProt P27958, 1027-1657: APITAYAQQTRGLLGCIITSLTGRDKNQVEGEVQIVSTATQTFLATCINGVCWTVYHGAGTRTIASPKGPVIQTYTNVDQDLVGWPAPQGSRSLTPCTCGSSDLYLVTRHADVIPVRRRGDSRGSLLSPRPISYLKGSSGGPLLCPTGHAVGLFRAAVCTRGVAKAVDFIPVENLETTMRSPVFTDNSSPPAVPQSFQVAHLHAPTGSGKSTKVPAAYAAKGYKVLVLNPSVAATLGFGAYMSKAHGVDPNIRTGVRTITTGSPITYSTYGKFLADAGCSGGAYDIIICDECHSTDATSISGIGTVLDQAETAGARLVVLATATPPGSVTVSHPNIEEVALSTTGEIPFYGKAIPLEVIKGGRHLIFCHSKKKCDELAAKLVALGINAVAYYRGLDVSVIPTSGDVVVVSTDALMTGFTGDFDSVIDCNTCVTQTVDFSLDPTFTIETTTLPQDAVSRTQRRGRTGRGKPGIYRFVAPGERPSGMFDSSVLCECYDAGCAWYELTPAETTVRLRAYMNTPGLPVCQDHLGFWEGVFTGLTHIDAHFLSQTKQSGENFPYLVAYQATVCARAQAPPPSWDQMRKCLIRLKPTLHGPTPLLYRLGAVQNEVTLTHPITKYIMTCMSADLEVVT
UniProt P27958, 1658-1711: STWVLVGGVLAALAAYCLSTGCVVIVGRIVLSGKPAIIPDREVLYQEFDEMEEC

The target of the assay is Recombinant heterodimeric HCV NS3/NS4A protease (strain 1a) (Hepatitis C virus genotype 1a, UniProt P27958). Briefly: Spectrophotometric assay for HCV protease inhibitory activity. It is filed as biochemical.

As a reminder, the Ki is a measure of affinity in units of concentration, obtained from inhibition or displacement. For `CC(C)CC(C)(CNS(=O)(=O)c1ccccc1)NC(=O)N[C@H](C(=O)N1C[C@H]2[C@@H]([C@H]1C(=O)NC(CC1CCC1)C(=O)C(N)=O)C2(C)C)C(C)(C)C` (some centres unmarked) [Compound 12006], for the setting “Table 3, range”, the Ki fell in the range of 75 to 250 nM.
Take `CNC(=O)C(=O)C(CC1CC1)NC(=O)[C@@H]1[C@@H]2[C@H](CN1C(=O)[C@@H](NC(=O)N[C@H](CN(C)S(=O)(=O)N(C)C(=O)OCc1ccccc1)C(C)(C)C)C(C)(C)C)C2(C)C` (some centres unmarked) [Compound 10047]: the Ki (Table 1, range) is no more than 75 nM.
For the compound `C=CCNC(=O)C(=O)C(CCCC)NC(=O)[C@@H]1[C@@H]2[C@H](CN1C(=O)[C@@H](NC(=O)N[C@H](CN(C)S(=O)(=O)c1cccnc1)C(C)(C)C)C1(C)CCCCC1)C2(C)C` (some centres unmarked) [Compound 11405], the Ki is, setting by setting: (Table 5A, range) no more than 75 nM; (Table 6) 4 nM.
Take `C=CCNC(=O)C(=O)C(CCC)NC(=O)[C@@H]1[C@@H]2[C@H](CN1C(=O)[C@@H](NC(=O)N[C@H](CN(C)S(=O)(=O)c1sc(C)nc1C)C1CCCCC1)C(C)(C)C)C2(C)C` (some centres unmarked) [Compound 11155]: for the setting “Table 2, range”, the Ki is no more than 75 nM.
The same measure, in the same setting: the value for `C=CCNC(=O)C(=O)C(CC1CC1)NC(=O)[C@@H]1[C@@H]2[C@H](CN1C(=O)[C@@H](NC(=O)N[C@H](CN(CC1CC1)S(=O)(=O)c1ccccc1)C(C)C)C(C)(C)C)C2(C)C` (some centres unmarked) [Compound 11012] was no more than 75 nM.
On the same count and under the same terms, the value for `C=CCNC(=O)C(=O)C(CCC)NC(=O)[C@@H]1[C@@H]2[C@H](CN1C(=O)[C@@H](NC(=O)NCC1(N(C)S(C)(=O)=O)CCCCC1)C(C)(C)C)C2(C)C` (some centres unmarked) [Compound 11235] was no more than 75 nM.
Turning to `C=CCNC(=O)C(=O)C(CCC)NC(=O)[C@@H]1[C@@H]2[C@H](CN1C(=O)[C@@H](NC(=O)NC1(CN(C)S(C)(=O)=O)CCCCC1)C(C)(C)C)C2(C)C` (some centres unmarked) [Compound 11061], the Ki (Table 2, range) was no more than 75 nM.
The same measure, in the same setting: the value for `C=CCNC(=O)C(=O)C(CCC)NC(=O)[C@@H]1C[C@@H](OC(C)(C)C)CN1C(=O)[C@@H](NC(=O)N[C@H](CN(C)S(C)(=O)=O)C(C)(C)C)C1CCCCC1` (some centres unmarked) [Compound 11194] was 75 to 250 nM.
Consider `C=CCNC(=O)C(=O)C(CCCC)NC(=O)[C@@H]1[C@@H]2[C@H](CN1C(=O)[C@@H](NC(=O)N[C@H](CN(C)C(=O)OC(C)(C)C)CC(C)(C)C)C(C)(C)C)C2(C)C` (some centres unmarked) [Compound 14041], for which, under “Table 5, range”, the Ki is greater than 250 nM.
Turning to `CC[C@H](C)[C@@H](CN(C)S(C)(=O)=O)NC(=O)N[C@H](C(=O)N1C[C@H]2[C@@H]([C@H]1C(=O)NC(CC1CC1)C(=O)C(=O)NC)C2(C)C)C(C)(C)C` (some centres unmarked) [Compound 11124], the Ki (Table 2, range) was no more than 75 nM.
On the same count and under the same terms, the value for `C=CCNC(=O)C(=O)C(CCC(F)(F)F)NC(=O)[C@@H]1[C@@H]2[C@H](CN1C(=O)[C@@H](NC(=O)N[C@H](CN(C)S(=O)(=O)CC)C(C)(C)C)C1Cc3ccccc3C1)C2(C)C` (some centres unmarked) [Compound 11287] was no more than 75 nM; that for `CC(C)CC(C)(CN(C)S(=O)(=O)c1ccccc1)NC(=O)N[C@H](C(=O)N1C[C@H]2[C@@H]([C@H]1C(=O)NC(CC1CC1)C(=O)C(N)=O)C2(C)C)C(C)(C)C` (some centres unmarked) [Compound 11265] was no more than 75 nM.
On the same count and under the same terms, the value for `CCCCC(NC(=O)[C@@H]1[C@@H]2[C@H](CN1C(=O)[C@@H](NC(=O)N[C@H](CN(C)S(=O)(=O)C(C)(C)C)C(C)(C)C)C1Cc3ccccc3C1)C2(C)C)C(=O)C(N)=O` (some centres unmarked) [Compound 11270] was no more than 75 nM.
Turning to `COC(=O)N1CCCC(NC(=O)N[C@H](C(=O)N2C[C@H]3[C@@H]([C@H]2C(=O)NC(CC2CCC2)C(=O)C(N)=O)C3(C)C)C(C)(C)C)C1` (some centres unmarked) [Compound 14028], under “Table 5, range”, the inhibition constant (Ki) is 75 to 250 nM.
On to `C#CCCC(NC(=O)[C@@H]1[C@@H]2[C@H](CN1C(=O)[C@@H](NC(=O)NC1(CN(C)S(=O)(=O)Cc3ccccc3)CCCCC1)C(C)(C)C)C2(C)C)C(=O)C(=O)NCC=C` (some centres unmarked) [Compound 11097], for which the Ki (Table 2, range) was no more than 75 nM.
On to `CCS(=O)(=O)N(C)C[C@@H](NC(=O)N[C@H](C(=O)N1C[C@H]2[C@@H]([C@H]1C(=O)NC(CC1CC1)C(=O)C(=O)NC1CC1)C2(C)C)C1Cc2ccccc2C1)C(C)(C)C` (some centres unmarked) [Compound 11415], for which, under “Table 5A, range”, the Ki is no more than 75 nM.
